From PubChem BioAssay AID624204 (Sanford-Burnham Center for Chemical Genomics, 2012) come the findings set out here.

By UniProt entry, the sequences of proteins in these tests, tags left out. Residues count along the entry.
UniProt Q9P0U3, 419-644 limits assumed: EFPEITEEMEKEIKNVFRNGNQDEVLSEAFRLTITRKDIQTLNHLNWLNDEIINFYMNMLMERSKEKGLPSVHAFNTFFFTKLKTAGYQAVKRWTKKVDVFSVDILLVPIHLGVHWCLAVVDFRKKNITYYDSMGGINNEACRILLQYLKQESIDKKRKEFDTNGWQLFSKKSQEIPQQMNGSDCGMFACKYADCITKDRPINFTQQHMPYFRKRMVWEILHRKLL

Each structure is given as a SMILES string. This is a selection; strong and weak results do not stand in their true shares. Some salts and complexes are drawn in separate pieces, as the source files them; their charges need not balance. Activity calls are given as the source filed them.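 The calls were made as follows: active = inhibition at least 30% at 10 µM, raw YFP signal under a set limit, fluorescence ratio 0.5 to 1.5; inactive = the rest.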

In the test the target is Sentrin-specific protease 1 (Homo sapiens) (UniProt Q9P0U3). Kind of test: human SENP1 catalytic domain inhibitors, primary screen, biochemical, FRET, uHTS (AID 624204).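 Also: 0% = enzyme with DMSO and 100% = no enzyme wells.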 The note with it: recombinant SENP1 catalytic domain, CyPet-SUMO1-YPet FRET cleavage; at 10 µM; hits give high values.
By inhibition is commonly meant the change of the read-out against control, counted positive when it falls. Consider `O=[N+]([O-])c1ccc(OP2(=O)COCCO2)cc1` (stereo not drawn), for which the inhibition was inactive: 1.1%.

`O=[N+]([O-])c1cc([N+](=O)[O-])c(NCC2CCS(=O)(=O)C2)c([N+](=O)[O-])c1` (stereo not drawn): the inhibition is inactive: 3.34%.

For the molecule `Cc1cc(-c2cccc3ccccc23)c(C)cn1.O=[N+]([O-])c1cc([N+](=O)[O-])c(O)c([N+](=O)[O-])c1`, the inhibition is inactive: 0.981%. `CCOC(=O)c1ccc(NP(C)(=O)Oc2ccc(F)cc2)cc1` (stereo not drawn): the inhibition was inactive: 1.4%. Next, `COc1ccc(OP(C)(=O)Nc2ccc(SC(F)(F)F)cc2)cc1` (stereo not drawn): inactive: 1.11%. For the molecule `CCN(CC)CCCNc1ccccc1[N+](=O)[O-].O=[N+]([O-])c1cc([N+](=O)[O-])c(O)c([N+](=O)[O-])c1`, the inhibition was inactive: 0.413%.

For the molecule `CP(=O)(Nc1ccccc1)Oc1ccc(F)cc1` (stereo not drawn), the inhibition is inactive: 1.68%. In the case of `CCCCCOc1ccc(NP(C)(=O)Oc2ccc(Cl)cc2Cl)cc1` (stereo not drawn), the inhibition is inactive: 0.536%. As for `O=[N+]([O-])c1cc([N+](=O)[O-])c(OC2CCCCC2O)c([N+](=O)[O-])c1` (stereo not drawn), the inhibition was inactive: -2.31%.

`Cc1c([N+](=O)[O-])cc([N+](=O)[O-])c(Br)c1[N+](=O)[O-]`: the inhibition was inactive: 2.98%. The value for `CCN(CC)CCCOC(=O)C(O)(c1ccccc1)C1CCCCC1` (stereo not drawn) was inactive: 0.175%; that for `CP(=O)(Nc1ccccc1F)Oc1ccccc1` (stereo not drawn) was inactive: 0.911%. Next, `CC(C)c1ccc(OP(C)(=O)Nc2ccc(SC(F)(F)F)cc2)cc1` (stereo not drawn): inactive: 0.581%. For `O=[N+]([O-])c1cc([N+](=O)[O-])c(Nc2ccc(Cl)cc2)c([N+](=O)[O-])c1`, the inhibition was inactive: 4.2%. The value for `COc1ccc2c(c1O)-c1c(O)c(OC)cc3c1[C@H](C2)[N+](C)(C)CC3.O=[N+]([O-])c1cc([N+](=O)[O-])c([O-])c([N+](=O)[O-])c1[O-]` was inactive: 3.05%. The value for `O=C(OC1CN2CCC1CC2)c1ccc([N+](=O)[O-])cc1` (stereo not drawn) was inactive: -1.89%; that for `O=C(OCCN1CCN(CCOCc2ccccc2)CC1)C(O)(c1ccccc1)c1ccccc1` was inactive: 0.686%. Next, `COc1ccc(OP(C)(=O)Nc2ccccn2)cc1` (stereo not drawn): inactive: 1.86%. As for `CN(C)CCOC(=O)C(O)(c1ccccc1)C1CCCC1` (stereo not drawn), the inhibition was inactive: 0.773%. Take `COc1ccccc1OP(C)(=O)Nc1ccc(Br)cc1` (stereo not drawn): the inhibition is inactive: 1.19%. For the molecule `CP(=O)(Nc1ccccn1)Oc1ccccc1` (stereo not drawn), the inhibition is inactive: 1.96%. The value for `COc1ccccc1OP(C)(=O)Nc1ccc(C)cc1C` (stereo not drawn) was inactive: -0.198%; that for `CCc1ccc(OP(C)(=O)O)cc1` was inactive: -0.214%; that for `Cc1c(NP(C)(=O)Oc2ccc(C(C)C)cc2)c(=O)n(-c2ccccc2)n1C` (stereo not drawn) was inactive: 0.875%. The value for `O=[N+]([O-])c1cc([N+](=O)[O-])c(Nc2ccccn2)c([N+](=O)[O-])c1` was inactive: 1.51%; that for `COc1ccccc1OP(C)(=O)Nc1ccc(C)c(C)c1` (stereo not drawn) was inactive: -1.04%; that for `COc1ccc(OP(C)(=O)Nc2ccccc2Br)cc1` (stereo not drawn) was inactive: 0.669%. Next, `O=C1C(O)=C([N+](=O)[O-])C(=O)C(O)=C1[N+](=O)[O-]`: inactive: 10.3%; `Cc1cc(C)cc(OP(C)(=O)Nc2cccc(C(F)(F)F)c2)c1` (stereo not drawn): inactive: 2.37%.

`CCCCCCCCCCCCCCCC1C[N+](C)(C)CCOP(C)(=O)O1` (stereo not drawn): the inhibition is inactive: 1.7%. The value for `CP(=O)(Nc1ccc(Cl)cc1Cl)Oc1ccccc1` (stereo not drawn) was inactive: 2.13%; that for `CP(=O)(OCCOc1ccccc1)OCCOc1ccccc1` was inactive: 0.779%; that for `CCOC(=O)c1ccc(NP(C)(=O)Oc2ccc(Cl)cc2)cc1` (stereo not drawn) was inactive: 1.97%. On to `CP(=O)(OC12CC3CC(CC(C3)C1)C2)OC12CC3CC(CC(C3)C1)C2`, for which the inhibition is inactive: 1.62%. Next, `COc1ccccc1OP(C)(=O)Nc1c(C)n(C)n(-c2ccccc2)c1=O` (stereo not drawn): inactive: 1.96%; `O=C(OCCCN1CCCC1)C(O)(c1ccccc1)C1CCCCC1` (stereo not drawn): inactive: 0.826%; `CP(=O)(Oc1ccccc1)N1CCOC1=O` (stereo not drawn): inactive: 1.22%. For `CCc1ccc(OP(C)(=O)Nc2cccnc2)cc1` (stereo not drawn), the inhibition is inactive: 0.0323%. In the case of `CCN(CC)CC(O)COC(=O)C(O)(c1ccccc1)C1CCCCC1` (stereo not drawn), the inhibition was inactive: 1.71%. The value for `COc1ccc(OP(C)(=O)Nc2ccc(Br)cc2)cc1` (stereo not drawn) was inactive: -0.214%. Consider `CN(C)C(=O)c1c([N+](=O)[O-])cc([N+](=O)[O-])cc1[N+](=O)[O-]`, for which the inhibition was inactive: 1.81%. The value for `COc1ccccc1OP(C)(=O)Nc1ccccc1Br` (stereo not drawn) was inactive: 0.845%; that for `CC(C)(C)c1ccc(OP(C)(=O)O)cc1` was inactive: 1.79%.
